Several values for one entry are separate records, joined by “and”; a condition that tells them apart may be missing. Identical values can stand only once.
B1: Alpha-1-antitrypsin, P01009 (parent)
chain: MPSSVSWGILLLAGLCCLVPVSLAEDPQGDAAQKTDTSHHDQDHPTFNKITPNLAEFAFSLYRQLAHQSNSTNIFFSPVSIATAFAMLSLGTKADTHDEILEGLNFNLTEIPEAQIHEGFQELLRTLNQPDSQLQLTTGNGLFLSEGLKLVDKFLEDVKKLYHSEAFTVNFGDTEEAKKQINDYVEKGTQGKIVDLVKELDRDTVFALVNYIFFKGKWERPFEVKDTEEEDFHVDQVTTVKVPMMKRLGMFNIQHCKKLSSWVLLMKYLGNATAIFFLPDEGKLQHLENELTHDIITKFLENEDRRSASLHLPKLSITGTYDLKSVLGQLGITKVFSNGADLSGVTEEAPLKLSKAVHKAVLTIDEKGTEAAGAMFLEAIPMSIPPEVKFNKPFVFLMIEQNTKSPLFMGKVVNPTQK

Variants of: B1
Conditions: Homo sapiens, pH 7.8, Tris 50 mM, reversible: yes, structure 1QLP, whole UniProt chain shown; for denaturant m value / denaturant midpoint (higher = more stable) / unfolding free energy: 25 °C, GdnHCl, transition: 3; for Tm: Thermal

## Y184A
CD, NaCl 50 mM
  denaturant m value: 0.71 kcal/mol/M
  denaturant midpoint (higher = more stable): 2.8 M
  unfolding free energy: 2 kcal/mol
  Tm: 54 °C
Fluorescence, KI 2 M
  denaturant m value: 7.9 kcal/mol/M
  denaturant midpoint (higher = more stable): 0.5 M
  unfolding free energy: 4.3 kcal/mol

## Y184W
CD, NaCl 50 mM
  denaturant midpoint (higher = more stable): 1 M and 2.9 M
  unfolding free energy: 4.2 kcal/mol and 2 kcal/mol
  Tm: 65 °C
